Results reported in patent US9090596B2, “Disubstituted 3,4-diamino-3-cyclobutene-1,2-dione compounds for use in the treatment of chemokine-mediated pathologies” (GALDERMA RESEARCH & DEVELOPMENT, priority 2011, dated 2015).

Amino acid sequences for entries named in this document (tags omitted).
UniProt P25025, whole entry: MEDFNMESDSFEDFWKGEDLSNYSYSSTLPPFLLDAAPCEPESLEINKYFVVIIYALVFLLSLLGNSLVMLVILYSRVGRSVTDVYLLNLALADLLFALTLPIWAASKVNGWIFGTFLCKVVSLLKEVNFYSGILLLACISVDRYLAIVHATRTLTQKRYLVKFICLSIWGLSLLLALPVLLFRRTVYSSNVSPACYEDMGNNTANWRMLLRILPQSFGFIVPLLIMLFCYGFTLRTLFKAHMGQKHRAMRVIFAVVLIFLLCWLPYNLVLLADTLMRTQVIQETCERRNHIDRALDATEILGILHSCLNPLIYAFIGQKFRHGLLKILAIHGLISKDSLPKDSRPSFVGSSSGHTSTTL

Biological target: CXCR2 (Homo sapiens (Human), UniProt P25025)
Test: Half-dissociation time, washout β-arrestin recruitment model in PathHunter HEK293-CXCR2 cells
Format: cell-based
Details: CXCR2, saturating concentration of antagonist, 4 nM CXCL8
Experimental: The determination of the half-dissociation constants of the CXCR2 antagonists was based on the in vitro β-arrestin recruitment model previously described: “PathHunter HEK293-CXCR2” cells (DiscoveRx Corporation) were seeded overnight at 20 000 cells/well (in a 96-well format) in 100 μl/well of OptiMEM culture medium-1% FCS. A preincubation with the antagonist or the vehicle was carried out for 1 hour at 37° C.-5% CO2. The cells were then washed 3 times with 100 μl/well of OptiMEM culture medium-1% FCS and then a variable incubation (0 h-0.5 h-6 h-12 h-24 h) of the cells at 37° C.-5% CO2 was carried out. The cells were then stimulated with 4 nM of CXCL8 at 37° C.-5% CO2 for 1 h 30 min. […] After incubation for 60 minutes at ambient temperature, the luminescence emitted, via the hydrolysis of the substrate by the β-galactosidase complemented during the β-arrestin-CXCR2 interaction, was measured for 0.3 seconds/well with an Envision Multilabel Reader (PerkinElmer Life and Analytical Sciences). The data were analyzed by means of a non-linear curve procedure using the XLFit4 exploitation software (IDBS) and the IC50 values were determined. The half-dissociation time was determined on a regression of type y=(A*(1−exp(((−1)*B)*x))) (where x=time and y=standardized luminescence) at saturating concentration of antagonist.

Question: For `CC[C@@H](Nc1c(Nc2cccc(C(=O)N(C)C)c2O)c(=O)c1=O)c1ccc(C)o1` [SCH-527123], which Half-dissociation time is on record?
Answer: The Half-dissociation time was >96 h.
